From PubChem BioAssay AID651710 (Broad Institute, 2012)
The entries are a selection whose mix differs from that of the whole data set. Activity calls are given as the source filed them.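 The calls were made as follows: active = every replicate showing at least 50% inhibition; inconclusive = mean inhibition at least 50% but not in every replicate; inactive = the rest.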

Amino acid sequences for entries named in this document (tags omitted). A change or cut given only in a name is not applied to a line headed by its entry.
UniProt P43351: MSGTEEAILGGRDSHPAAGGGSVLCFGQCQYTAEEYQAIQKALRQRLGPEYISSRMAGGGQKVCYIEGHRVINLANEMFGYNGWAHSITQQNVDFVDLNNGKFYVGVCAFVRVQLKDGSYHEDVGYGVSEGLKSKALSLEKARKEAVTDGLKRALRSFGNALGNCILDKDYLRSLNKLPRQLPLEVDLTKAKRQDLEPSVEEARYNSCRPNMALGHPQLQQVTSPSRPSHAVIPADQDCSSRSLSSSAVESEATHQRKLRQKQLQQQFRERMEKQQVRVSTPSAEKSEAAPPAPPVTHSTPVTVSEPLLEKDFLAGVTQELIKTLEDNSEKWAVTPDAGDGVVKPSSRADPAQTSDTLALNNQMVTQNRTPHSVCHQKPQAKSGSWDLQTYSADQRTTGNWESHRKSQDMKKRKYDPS

Biological target: DNA repair protein RAD52 homolog (Homo sapiens) (UniProt P43351)
Test: blockers of RAD52 strand annealing activity – biochemical, FRET, single point, set 2, primary screen (AID 651710)
Settings: recombinant RAD52 DNA annealing, FRET fluorescence; at 18.7 µM; active compounds read high

Question: How did the inhibition turn out when `COc1cc(C(=O)NCC2(N3CCOCC3)CCCCC2)cc(Cl)c1OC(C)C` was run?
Answer: Its inhibition is inactive: -17.2%.

Question: How did the inhibition turn out when `CCOP(=O)(Nc1cccc2ccccc12)OCC` was run?
Answer: Its inhibition is inactive: -12.9%.

Question: `Nc1cccc2c([As](=O)(O)O)cccc12` was tested. Which inhibition did it give?
Answer: The inhibition was inactive: -113%.

Question: `Cc1ccc(NCCc2c([N+](=O)[O-])cc([N+](=O)[O-])cc2[N+](=O)[O-])cc1` was tested. Which inhibition did it give?
Answer: Its inhibition is inactive: -1.19%.

Question: `CCCOP(=S)(Nc1nc(N)cc(=O)[nH]1)OCCC` was tested. Which inhibition did it give?
Answer: Its inhibition is inactive: -18.6%.

Question: With `Nc1ccccc1[As](=O)(O)c1ccccc1` as the compound, how does the inhibition read?
Answer: Its inhibition is inactive: -4.28%.

Question: How did the inhibition turn out when `O=C(O)COc1ccc([As](=O)(O)O)cc1[N+](=O)[O-]` was run?
Answer: Its inhibition is inactive: -14.3%.

Question: `O=P(Nc1nccs1)(Oc1ccccc1)Oc1ccccc1` was tested. Which inhibition did it give?
Answer: The inhibition was inactive: -6.13%.

Question: Which inhibition does the source give for `CCOP1(=S)c2c(C)nn(CCC#N)c2N=C(c2ccccc2F)N1C` (stereo not given) here?
Answer: Its inhibition is inactive: -1.77%.

Question: Which inhibition does the source give for `CCOP1(=S)c2c(C)nn(CCC#N)c2N=C(c2ccc(F)cc2)N1C` (stereo not given) here?
Answer: Its inhibition is inactive: -5.02%.

Question: `CN(C(=O)Cc1ccccc1)[C@@H]1CC[C@]2(CCCO2)C[C@H]1N1CCCC1` was tested. Which inhibition did it give?
Answer: The inhibition was inactive: -55.1%.

Question: For `N#CCCN(C(=O)COC(=O)C(O)(c1ccccc1)c1ccccc1)c1ccc(F)cc1`, which inhibition is on record?
Answer: Its inhibition is inactive: 0.163%.

Question: With `CN(C(=O)Cc1ccc(Cl)c(Cl)c1)[C@H]1CC[C@@]2(CCCO2)C[C@@H]1N1CCCC1` as the compound, how does the inhibition read?
Answer: The inhibition was inactive: -11.5%.

Question: `CN(C)C(=O)c1cc([N+](=O)[O-])cc2c1-c1c(cc([N+](=O)[O-])cc1[N+](=O)[O-])C2=O` was tested. Which inhibition did it give?
Answer: Its inhibition is inactive: -0.502%.

Question: How did the inhibition turn out when `NC(=O)Nc1ccc([As](=O)(O)O)cc1` was run?
Answer: Its inhibition is inactive: -1.2%.

Question: With `[N-]=[N+]=NC1CCCCC1NC(=O)c1cc([N+](=O)[O-])cc([N+](=O)[O-])c1` (stereo not given) as the compound, how does the inhibition read?
Answer: The inhibition was inactive: -5.17%.

Question: With `Cc1ccc(OP(=O)(Nc2ccc([N+](=O)[O-])cn2)Oc2ccc(C)cc2)cc1` as the compound, how does the inhibition read?
Answer: Its inhibition is inactive: -10%.

Question: How did the inhibition turn out when `Cc1ccc2nc3c(c(C)c2c1)CC(C(Cl)Cl)S3` (stereo not given) was run?
Answer: Its inhibition is inactive: -46%.

Question: `O=[N+]([O-])c1ccc(-c2cc([N+](=O)[O-])c(O)c([N+](=O)[O-])c2)cc1` was tested. Which inhibition did it give?
Answer: Its inhibition is inactive: 6.22%.

Question: How did the inhibition turn out when `COc1cc(C(=O)NCC2(N3CCOCC3)CCCCC2)ccc1OCC(C)C` was run?
Answer: The inhibition was inactive: -29.7%.

Question: With `C[As](=O)(O)c1cccc(C(=O)O)c1` as the compound, how does the inhibition read?
Answer: Its inhibition is inactive: 2.71%.

Question: `O=[As](O)(c1ccc(O)cc1)c1ccccc1O` was tested. Which inhibition did it give?
Answer: Its inhibition is inactive: -2.59%.

Question: Which inhibition does the source give for `CC(C)NC(=O)NP(=O)(Oc1ccccc1)Oc1ccccc1` here?
Answer: Its inhibition is inactive: -1.31%.

Question: How did the inhibition turn out when `O=C(OC1CN2CCC1CC2)c1cccc2[nH]cnc12` (stereo not given) was run?
Answer: The inhibition was inactive: 31.3%.

Question: `COC(=O)C1(C)COP(=O)(N2CCCCCC2)OC1` (stereo not given) was tested. Which inhibition did it give?
Answer: The inhibition was inactive: -3.9%.

Question: Which inhibition does the source give for `CC(C)c1ccc(OP(=O)(Nc2ccccn2)Oc2ccccc2F)cc1` (stereo not given) here?
Answer: The inhibition was inactive: -2.34%.

Question: Which inhibition does the source give for `COc1ccc(CN2/C(=N\P(=O)(Oc3ccccc3)Oc3ccccc3)Cc3ccccc3C2C2CC2)cc1` (stereo not given) here?
Answer: Its inhibition is inactive: 14.4%.

Question: Which inhibition does the source give for `O=P1(N(CCCl)CCCl)OCCCN1CCCl` (stereo not given) here?
Answer: The inhibition was inactive: -1.11%.

Question: For `O=P1(N(CCCl)CCCl)Nc2ccccc2N1`, which inhibition is on record?
Answer: Its inhibition is inactive: -14.1%.

Question: For `COc1cc(I)ccc1[As](=O)(O)O`, which inhibition is on record?
Answer: The inhibition was inactive: -0.409%.

Question: How did the inhibition turn out when `COc1ccc2nc(NP(=O)(c3ccccc3)c3ccccc3)sc2c1` was run?
Answer: The inhibition was inactive: -5.85%.

Question: For `Cc1c2c(nc3ccccc13)SC(C(Cl)Cl)C2` (stereo not given), which inhibition is on record?
Answer: Its inhibition is inactive: -7.1%.

Question: Which inhibition does the source give for `Cc1cc(=O)[nH]c(N[N+](=O)[O-])n1` here?
Answer: The inhibition was inactive: -5.24%.

Question: How did the inhibition turn out when `O=[N+]([O-])c1cc(Oc2ccc([N+](=O)[O-])cc2C(F)(F)F)cc([N+](=O)[O-])c1` was run?
Answer: The inhibition was inactive: -1.67%.

Question: Which inhibition does the source give for `COc1ccc(N/C(=N/P(=O)(N2CCOCC2)N2CCOCC2)N2CCOCC2)cc1` here?
Answer: Its inhibition is inactive: -18.9%.

Question: `O=C(O)C(=O)c1ccc(N(CCCl)CCCl)cc1` was tested. Which inhibition did it give?
Answer: Its inhibition is inactive: -13.3%.

Question: Which inhibition does the source give for `O=C(Nc1ccncc1[N+](=O)[O-])c1ccc([N+](=O)[O-])cc1[N+](=O)[O-]` here?
Answer: The inhibition was inactive: -6.62%.

Question: How did the inhibition turn out when `COC(=O)C1(C)COP(=O)(N2CCCC2)OC1` (stereo not given) was run?
Answer: The inhibition was inactive: -2.84%.

Question: How did the inhibition turn out when `COP1(=S)c2c(C)nn(CCC#N)c2N=C(c2ccc(F)cc2)N1C` (stereo not given) was run?
Answer: The inhibition was inactive: -7.26%.

Question: `O=C(OC1CN2CCC1CC2)c1cccc([N+](=O)[O-])c1` (stereo not given) was tested. Which inhibition did it give?
Answer: Its inhibition is inactive: -2.71%.

Question: `CCOC(=O)c1ccc(NC(=O)C(C)(CCl)SC)cc1` (stereo not given) was tested. Which inhibition did it give?
Answer: Its inhibition is inactive: 4.05%.

Question: With `COP(=O)(OC)N1CC1c1ccccc1` (stereo not given) as the compound, how does the inhibition read?
Answer: Its inhibition is inactive: -3.95%.

Question: For `CCCCOc1ccc(C(=O)NCC2(N3CCCCC3)CCCCC2)cc1OC`, which inhibition is on record?
Answer: Its inhibition is inactive: -12.8%.

Question: `CCOC(=O)Nc1ccc([As](=O)(O)O)c(O)c1` was tested. Which inhibition did it give?
Answer: Its inhibition is inactive: -13.7%.

Question: Which inhibition does the source give for `O=C(O)C(O)c1ccc(N(CCCl)CCCl)cc1` (stereo not given) here?
Answer: Its inhibition is inactive: -23.3%.

Question: With `CC1CCNP(=O)(N(CCCl)CCCl)O1` (stereo not given) as the compound, how does the inhibition read?
Answer: Its inhibition is inactive: 5.24%.

Question: With `O=P(Nc1ccccn1)(c1cccc2ccccc12)c1cccc2ccccc12` as the compound, how does the inhibition read?
Answer: The inhibition was inactive: 16.8%.

Question: `Cc1cc(SC(NC=O)C(Cl)(Cl)Cl)ncn1` (stereo not given) was tested. Which inhibition did it give?
Answer: The inhibition was inactive: -30.5%.

Question: With `O=[N+]([O-])c1ccc(Nc2ccc(Oc3ccc([N+](=O)[O-])cc3[N+](=O)[O-])cc2)c([N+](=O)[O-])c1` as the compound, how does the inhibition read?
Answer: Its inhibition is inactive: -2.1%.

Question: `CCOC(=O)Nc1cccc([As](=O)(O)O)c1` was tested. Which inhibition did it give?
Answer: Its inhibition is inactive: -7.04%.
